The chains behind the UniProt entries cited, without tags or fusion partners. Where a name states a change or a piece, a line headed by the entry shows the natural chain unless it says otherwise.
UniProt P41146: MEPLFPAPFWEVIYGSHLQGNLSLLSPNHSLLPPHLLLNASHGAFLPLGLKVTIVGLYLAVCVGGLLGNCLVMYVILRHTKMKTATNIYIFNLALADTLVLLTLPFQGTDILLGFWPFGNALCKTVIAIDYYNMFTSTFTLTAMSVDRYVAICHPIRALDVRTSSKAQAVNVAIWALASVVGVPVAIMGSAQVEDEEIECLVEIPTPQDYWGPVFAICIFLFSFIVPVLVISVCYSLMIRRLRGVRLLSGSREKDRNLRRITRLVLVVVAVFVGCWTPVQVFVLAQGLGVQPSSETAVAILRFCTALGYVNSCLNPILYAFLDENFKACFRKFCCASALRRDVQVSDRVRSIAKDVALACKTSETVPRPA
UniProt P35372: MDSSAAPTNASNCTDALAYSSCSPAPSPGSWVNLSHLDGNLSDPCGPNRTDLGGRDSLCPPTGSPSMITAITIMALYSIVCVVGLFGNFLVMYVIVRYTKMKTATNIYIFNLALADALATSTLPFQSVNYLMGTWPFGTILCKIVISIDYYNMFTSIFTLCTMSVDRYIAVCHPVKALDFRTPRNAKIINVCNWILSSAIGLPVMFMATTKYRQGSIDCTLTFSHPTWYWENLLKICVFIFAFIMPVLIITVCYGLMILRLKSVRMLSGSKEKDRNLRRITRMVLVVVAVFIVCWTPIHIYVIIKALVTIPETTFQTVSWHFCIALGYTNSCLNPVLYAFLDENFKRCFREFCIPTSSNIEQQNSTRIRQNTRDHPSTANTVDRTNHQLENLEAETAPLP
UniProt P41145: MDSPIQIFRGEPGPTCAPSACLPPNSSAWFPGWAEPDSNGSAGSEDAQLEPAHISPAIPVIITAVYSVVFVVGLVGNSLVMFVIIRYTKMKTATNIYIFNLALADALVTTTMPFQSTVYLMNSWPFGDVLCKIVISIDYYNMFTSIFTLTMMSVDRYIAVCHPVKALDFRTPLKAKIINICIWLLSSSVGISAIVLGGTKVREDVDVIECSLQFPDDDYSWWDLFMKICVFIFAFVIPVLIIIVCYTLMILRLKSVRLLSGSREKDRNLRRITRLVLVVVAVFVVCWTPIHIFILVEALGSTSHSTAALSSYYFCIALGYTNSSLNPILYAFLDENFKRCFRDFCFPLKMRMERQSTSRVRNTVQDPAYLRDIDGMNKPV
UniProt P41143: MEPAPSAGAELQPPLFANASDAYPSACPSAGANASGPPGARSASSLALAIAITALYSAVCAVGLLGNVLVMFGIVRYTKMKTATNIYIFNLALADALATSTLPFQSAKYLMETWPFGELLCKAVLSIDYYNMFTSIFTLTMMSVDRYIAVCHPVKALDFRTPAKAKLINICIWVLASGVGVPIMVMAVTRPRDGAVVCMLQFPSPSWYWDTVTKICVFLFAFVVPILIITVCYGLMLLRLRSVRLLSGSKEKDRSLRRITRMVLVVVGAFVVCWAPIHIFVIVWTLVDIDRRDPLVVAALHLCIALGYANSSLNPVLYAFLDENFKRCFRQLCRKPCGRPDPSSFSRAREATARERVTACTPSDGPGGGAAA

In patent US9527840B2, “Substituted-quinoxaline-type piperidine compounds and the uses thereof” (priority 2007, dated 2016):

Tests used:
[1] = system: FCA-induced inflammation of the rat hind paw; assay: Freund's complete adjuvant (FCA) model of inflammatory pain; format: in vivo
[2] = biological target: T1, human opioid receptor-like (ORL-1) (Homo sapiens, UniProt P41146); assay: In vitro ORL-1 receptor functional assay ([35S]GTPγS binding); format: biochemical; settings: mean ± SEM; for EC50: read-out: ORL-1 GTPγS EC50
μ-opioid receptor [3] = biological target: T2, μ-opioid receptor (Homo sapiens, UniProt P35372); assay: In vitro mu-opioid receptor binding assay ([3H]-diprenorphine displacement); settings: read-out: Ki [Average ± Std Deviation] Opioid Receptor Mu
kappa opioid receptor = kappa opioid receptor (Homo sapiens, UniProt P41145); assay: In vitro kappa-opioid receptor functional assay ([35S]GTPγS); format: biochemical; settings: mean ± SEM; for EC50: read-out: Kappa opioid receptor GTPγS EC50
[4] = biological target: recombinant delta opioid receptor (Homo sapiens, UniProt P41143); assay: In vitro delta-opioid receptor binding assay ([3H]-Naltrindole displacement); settings: read-out: Ki [Average ± Std Deviation] Opioid Receptor Delta; CHO-K1 cell membranes
[5] = biological target: T1, human opioid receptor-like (ORL-1); assay: In vitro ORL-1 receptor binding assay ([3H]-nociceptin displacement); settings: read-out: Ki [Average ± Std Deviation] ORL-1; membranes from recombinant HEK-293 cells
μ-opioid receptor [6] = biological target: T2, μ-opioid receptor; assay: In vitro mu-opioid receptor functional assay ([35S]GTPγS); format: biochemical; settings: mean ± SEM
[7] = Abnormal behavioral side effects (sedation, hyperactivity, hypoactivity); settings: rat, in vivo

Compound: O=C(O)c1nc2ccccc2n([C@H]2C[C@H]3CCC[C@@H](C2)N3C2CCCCCCC2)c1=O
- ED50 value for reversal of thermal hyperalgesia ([1]; 1 hour after administration): 2.7 mg/kg
- ED50 value for reversal of thermal hyperalgesia ([1]; 3 hours after administration): 3.8 mg/kg
- maximum % reversal of thermal hyperalgesia ([1]; 3 hours after administration): about 80%
- ED50 value for reversal of thermal hyperalgesia ([1]; 5 hours after administration): 2.3 mg/kg

Compound: 2454441-cyclooctylpiperidin-4-yl)-3-oxo-3,4-dihydroquinoxalin-2-yl)hexahydropyrrolo[3,4-c]pyrrol-2(1H)-yl)-2-oxoacetic acid
- ORL-1 GTPγS Emax [2]: 69.7 ± 5.2%
- EC50 [2]: 1620 nM
- Ki (μ-opioid receptor [3]): 2920 nM
- Kappa opioid receptor GTPγS Emax (kappa opioid receptor): 0.3%
- EC50 (kappa opioid receptor): > 20000 nM
- Ki [4]: > 20000 nM
- Ki [5]: 71.4 nM

Compound: 1-(4-(3-(hexahydropyrrolo[3,4-c]pyrrol-2(1H)-yl)-2-oxo-3,4-dihydroquinoxalin-1(2H)-yl)piperidin-1-yl)cyclooctanecarboxylic acid
- Ki [5]: > 100000 nM

Compound: O=C(O)c1nc2ccccc2n([C@H]2C[C@H]3CC[C@@H](C2)N3C2CCCCCCC2)c1=O
- maximum % reversal of thermal hyperalgesia ([1]; 3 hours after administration): about 80%

Compound: O=C(O)c1nc2ccccc2n([C@H]2C[C@H]3CCC[C@@H](C2)N3C2CC3CCCC(C3)C2)c1=O (stereo partly drawn) [Compound 362, 4-((endo)-9-((exo)-bicyclo[3.3.1]nonan-3-yl)-9-azabicyclo[3.3.1]nonan-3-yl)-3-oxo-3,4-dihydroquinoxaline-2-carboxylic acid]
- ED50 value for reversal of thermal hyperalgesia ([1]; 1 hour after administration): 0.8 mg/kg
- ED50 value for reversal of thermal hyperalgesia ([1]; 3 hours after administration): 1.5 mg/kg
- ED50 value for reversal of thermal hyperalgesia ([1]; 5 hours after administration): 3.0 mg/kg

Compound: (S)-2-(4-((endo)-9-cyclooctyl-9-azabicyclo[3.3.1]nonan-3-yl)-3-oxo-3,4-dihydroquinoxaline-2-carboxamido)-2-phenylacetic acid
- ORL-1 GTPγS Emax [2]: 57.7 ± 2^ %
- EC50 [2]: 53.1 nM
- Ki (μ-opioid receptor [3]): 443 nM
- Mu opioid receptor GTPγS Emax (μ-opioid receptor [6]): 12 ± 1.8%
- EC50 (μ-opioid receptor [6]; read-out: Mu opioid receptor GTPγS EC50): 5260 nM
- Kappa opioid receptor GTPγS Emax (kappa opioid receptor): 8.7 ± 1.3%
- EC50 (kappa opioid receptor): 208 nM
- Ki [4]: 106 nM
- Ki [5]: 9 nM

Compound: O=C(O)c1nc2ccccc2n([C@H]2C[C@H]3CC[C@@H](C2)N3C2CCCCCCCCCC2)c1=O
- abnormal behavioral side effects, such as sedation, hyperactivity and/or hypoactivity [7]: reduced abnormal behavioral side effects
